# In publication PMC12153294 (mBio, 2025):
# System: JHMV
# Assay type: cell-based, murine hepatitis virus (MHV)
# Details: 150 μM, DBT cells
smiles,measurement,value
COC(=O)[C@H](Cc1c[nH]c2ccccc12)Nc1ncnc2[nH]ccc12 [Compound 5a],Inhibition of infectious virus production,~ 0.5 logs
